Yeast mating assay 1: variants of the scFv Ab-14

Source: Engelhart et al. 2022 (doi:10.1038/s41597-022-01779-4), MIT Lincoln Laboratory and A-Alpha Bio; data file from the FLAb repository.

Target: peptide PDVDLGDISGINAS, taken from heptad repeat 2 (HR2) of SARS-CoV-2 spike.

The variants keep the light chain, the linker and the frameworks of Ab-14 (scFv order VH, a 15-residue (Gly4Ser)3 linker, VL).
VH: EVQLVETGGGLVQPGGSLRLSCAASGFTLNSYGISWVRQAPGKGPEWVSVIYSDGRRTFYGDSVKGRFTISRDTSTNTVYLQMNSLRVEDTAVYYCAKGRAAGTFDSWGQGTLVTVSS
VL: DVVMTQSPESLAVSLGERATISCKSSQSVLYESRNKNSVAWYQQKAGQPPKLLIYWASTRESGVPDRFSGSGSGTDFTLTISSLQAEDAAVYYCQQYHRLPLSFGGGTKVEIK

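Phage display of a naive human antibody library on the peptide gave the parent. AAYL49 was designed without a model: most single CDR substitutions and a random sample of double and triple ones. The assay is AlphaSeq: two haploid yeast populations carry antibody and antigen on their surface. Binding brings cells together so that they mate, and sequencing counts the barcode pairs among the diploids. A regression on co-assayed BCL2-family reference pairs converts the normalised counts of each replicate to an apparent Kd. Each pool was mated in three replicate cultures.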

Positions count from residue 1 of the parent VH; T28H puts H in place of T. Every variant below is changed at N30 of the VH (sequential numbering). Values are apparent Kd, the geometric mean of the replicates that gave a signal; lower means stronger binding. "nd" means that the variant was in the library but no mating with the target was seen in any replicate; the authors take this as a sign of poor binding, and no number exists. Three control strains display no target. For library AAYL49, 15% of the pairings with them gave a signal, with a median of 11 µM and one signal in twenty below 680 nM, so weak values seen in few replicates may be background.

With T28H+N30A+D54M the result was 51 µM (2 of 3 replicates). Variant N30W+G103R+F105P showed nd (0 of 3 replicates). For F27I+N30A+G55V, the assay gave 13 µM (1 of 3 replicates). With F27Y+N30L+G103N the result was nd (0 of 3 replicates). Variant N30C+R56F+D62S showed 260 nM (2 of 3 replicates). With N30F the result was 76 nM (3 of 3 replicates). Variant N30R+S63F+T104E showed 18 µM (1 of 3 replicates). For N30Q+V50E+R57E, the assay gave nd (0 of 3 replicates). With F27R+N30R the result was 9.2 µM (2 of 3 replicates).

Variant N30Q+S35W+Y60E gave nd (0 of 3 replicates). For N30H+G61Y+A102R, the assay gave nd (0 of 3 replicates). For N30C+D54R+R56Q, the assay gave nd (0 of 3 replicates). Variant N30S+V64Y showed nd (0 of 3 replicates). For N30W+I34T+V50T, the assay gave nd (0 of 3 replicates). For N30V+S53Y+T104E, the assay gave nd (0 of 3 replicates). For N30H+V50R+D62T, the assay gave nd (0 of 3 replicates). Variant N30E+T58G+S107I showed 3.7 µM (1 of 3 replicates). Variant N30S+K65S+S107V showed 1.2 µM (3 of 3 replicates).

For T28R+N30P+D62V, the assay gave nd (0 of 3 replicates). With N30Q+G33R+S35L the result was nd (0 of 3 replicates). With T28L+N30W the result was 310 nM (3 of 3 replicates). For N30S+F59D+D106S, the assay gave nd (0 of 3 replicates). Variant N30A+S53T+V64W showed nd (0 of 3 replicates). For G26S+N30V+R100W, the assay gave 6.5 nM (3 of 3 replicates). With N30R+G99R the result was 71 nM (3 of 3 replicates). Variant F27I+N30E+K65E showed 82 nM (3 of 3 replicates). Variant N30Q+D54N+G103Q showed nd (0 of 3 replicates).

Variant L29Q+N30F+V50Y gave 210 nM (1 of 3 replicates). With N30Q+S35K+A101Q the result was nd (0 of 3 replicates). Variant N30D+D62Q+G103D showed 10 µM (1 of 3 replicates). Variant N30H+S53Y+S63N gave 4.6 µM (1 of 3 replicates). Variant N30L+S53D+G99S showed 2.5 µM (1 of 3 replicates). Variant N30F+S31P+D62R showed 21 µM (1 of 3 replicates). Variant N30K+G33K+S35L gave 650 µM (1 of 3 replicates). Variant T28K+N30F gave 630 nM (3 of 3 replicates). Variant N30R+I34Q+G99R gave nd (0 of 3 replicates).

Extract of 4 entries:

With N30K+G33K+S35L the result was 650 µM (1 of 3 replicates).
With T28H+N30A+D54M the result was 51 µM (2 of 3 replicates).
With N30D+D62Q+G103D the result was 10 µM (1 of 3 replicates).
With N30R+I34Q+G99R the result was nd (0 of 3 replicates).